Yeast UUG start = alters start codon recognition fidelity in yeast | S. cerevisiae UUG-firefly luciferase reporter, luminescence/redox ratio | activity score, % at 18.7 µM | hit rate 0.13% among 350,000 | AID 602363;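 active means replicate mean at a twofold rise or more, about +100% in these data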;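 further: firefly luciferase made from a UUG start codon reports start codon fidelity; reporter light over untreated wells divided by growth signal over untreated wells; some hits fall short of that in this replicate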
Tb MetRS inh = Trypanosoma brucei MetRS inhibition. purified T. brucei MetRS, ATP depletion, Kinase-Glo luminescence. inhibition, % at 11.9 µM. 360,000 tested, 0.4% active. AID 624268;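 active means inhibition above a per-plate cutoff of the control wells' mean inhibition plus 3 SD, cut at about 5.5% in these data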;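 further: 0% = DMSO wells median and 100% = median of wells with control inhibitor compound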
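technique = Kinase-Glo luminescence, ATP depletion format | system = purified MetRS (methionyl-tRNA synthetase) enzyme from Trypanosoma brucei | timing = 15 min preincubation, 2 h reaction, all 25 °C | evaluation = percent inhibition versus plate control medians | dosing = single dose, 11.9 µM final nominal, 0.9% final DMSO | also added = substrates ATP, L-methionine and bulk Escherichia coli tRNA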
Arrestin-AP2 inh = blocks beta-arrestin peptide binding to AP2 adaptin; AID 504490; FITC-arrestin peptide / GST-AP2 beads, flow cytometry; AP2 beta2 appendage carries R879A mutation; inhibition, % at 10 µM; 340,000 tested, 0.31% active;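 active means inhibition above a set limit, near 3 SD of compounds lacking own fluorescence, cut at about 54% in these data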;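 further: plate controls were DMSO wells for no effect and 5 µM unlabelled arrestin peptide for full effect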
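test system = AP2 appendage R879A on GSH beads | buffer or medium = PBS plus Tween 20 (0.05%) and BSA (0.1%) | incubation = 12 min plus 1 h, RT | detection = bead flow cytometry, FITC channel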
Rce1 inh = yeast Ras-converting enzyme inhibition. Q03530. yeast membranes, quenched prenylated peptide cleavage fluorescence. calls only. 290,000 tested, 0.27% active. AID 2563;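 active means fall in fluorescence gain of 50% or more versus controls, with final raw signal at or below 3038400; inconclusive means same 50% fall but final raw signal above 3038400; inactive means fall in fluorescence gain under 50%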;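 further: plate controls were neutral control wells for no effect and wells lacking membranes for full effect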
Pemphigus Ab inh = human desmoglein-3 autoantibody binding inhibition. P32926. DSG3-coupled beads, scFv-anti-DSG3-GFP binding, flow cytometry; active compounds read low. binding (percent of control), % at 10 µM. 310,000 tested, 0.48% active. AID 588358;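 active means binding more than 3 SD below its plate's average and above zero; inconclusive means below that plate limit but binding exactly zero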;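 further: hits lower antibody fragment binding to DSG3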
Arr AP2 CP1 = blocks beta-arrestin peptide binding to human AP2. shares compounds with Arrestin-AP2 inh. GST-AP2 beads, FITC arrestin peptide binding, flow cytometry; GST-fused beta2-adaptin appendage, R879A mutant. inhibition, % at 10 µM. 1,300 tested, 2% active. AID 504908;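 active means inhibition above a set limit, roughly 3 SD of non-fluorescent compound noise, cut at about 38% in these data; inactive means inhibition at or below that limit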;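 further: loss of bead fluorescence from 50 nM FITC arrestin peptide bound to appendage; 0% = negative control wells and 100% = excess unlabelled arrestin peptide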
GST-FITC bead = GST-GSH bead binding interference, counter-screen. shares compounds with Arrestin-AP2 inh. GST-fluorescein binding to GSH beads, fluorescence. 1,300 tested, 2% active. inhibition, % at 10 µM;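 active means inhibition above 50%, about 3 SD of the inhibition seen with non-fluorescent compounds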;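 further: fluorescein maleimide labelled GST captured on 4 micron glutathione beads; higher means more loss of bead fluorescence from quenching or blocked binding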
Numbers without * were called inactive; i = inactive; u = inconclusive; x = no result. The list is not random: actives were taken first. Their share in the collection is about 1.2%.

Values run as follows: Arr AP2 CP1, Arrestin-AP2 inh, Yeast UUG start, GST-FITC bead, Pemphigus Ab inh, Tb MetRS inh, Rce1 inh
COc1ccc(-c2noc(CN(C(=O)c3ccc4c(c3)OCO4)C(C)C)n2)cc1OC
    -9, 60*, -8, -10, 100, 0, i
CO[C@@H]1CN(C)C(=O)c2ccc(NS(C)(=O)=O)cc2OC[C@H](C)N(C)C[C@@H]1C
    x, x, 1, x, x, x, x
C[C@@H]1CN([C@H](C)CO)C(=O)c2cc(NS(=O)(=O)c3cn(C)cn3)ccc2O[C@@H](C)CCCCO[C@@H]1CN(C)S(=O)(=O)c1cn(C)cn1
    x, x, 3, x, x, x, x
O=C(CCSCCC(=O)Nc1c(F)c(F)c(F)c(F)c1F)Nc1c(F)c(F)c(F)c(F)c1F
    -8, 58*, x, -4, 91, 0, i
O=C(N/N=C/c1cccc([N+](=O)[O-])c1)c1cccc(Br)c1
    13, 104*, x, 60*, 105, -1, i
O=C(O)C[C@H]1C[C@@H]2c3cc(NC(=O)Nc4ccccc4)ccc3O[C@@H]2[C@@H](CO)O1
    x, x, 16, x, x, x, x
O=C(C[C@H]1C[C@H]2c3cc(NC(=O)C4CCC4)ccc3O[C@H]2[C@@H](CO)O1)NCc1ccncc1
    x, x, -8, x, x, x, x
Cn1ccc(C(=O)OCC(=O)Nc2cccc3ccccc23)n1
    -6, 59*, x, -4, x, 0, i
C[C@@H]1CN([C@@H](C)CO)C(=O)c2cc(NC(=O)CCC(F)(F)F)ccc2O[C@@H](C)CCCCO[C@@H]1CN(C)C(=O)c1ccncc1
    x, x, -3, x, x, x, x
O=C(NC1CCN(Cc2ccccc2)CC1)c1ccc(S(=O)(=O)NCc2ccco2)cc1
    x, 12, -13, x, 98, 0, i
O=C(c1ccc(S(=O)(=O)NCc2ccco2)cc1)N1CCN(Cc2ccccc2F)CC1
    0, 5, -20, 0, 98, 0, x
O=C(NCc1ccccc1F)c1ccc(S(=O)(=O)NCc2ccco2)cc1
    x, -19, -18, x, u, 0, x
CCOC(=O)C1CCCN(C(=O)c2ccc(S(=O)(=O)NCc3ccco3)cc2)C1 (stereo not given)
    x, 24, -5, x, 100, 0, i
COc1ccc(CN2CCN(C(=O)c3ccc(S(=O)(=O)NCc4ccco4)cc3)CC2)cc1
    3, 27, -32, -10, 99, -1, x
O=C(c1ccc(S(=O)(=O)NCc2ccco2)cc1)N1CCN(Cc2ccccc2)CC1
    4, 59*, x, -6, 114, 0, i
C[C@@H]1CN([C@@H](C)CO)C(=O)c2cc(C3=CCCC3)cnc2O[C@@H]1CN(C)S(C)(=O)=O
    x, x, -7, x, x, x, x
COc1ccc(CN2C[C@H](O)COC[C@H]3O[C@H](CC(=O)NCc4ccncn4)CC[C@@H]32)cc1
    x, x, -1, x, x, x, x
Cn1cccc1C(=O)NC(=O)CSc1cccc[n+]1[O-]
    x, 0, -10, x, 95, 0, i
O=C(CSc1cccc[n+]1[O-])NC(=O)c1ccc(OC(F)F)cc1
    -9, 54*, x, -2, 114, -1, i
COCC(=O)N(C)C[C@@H]1Oc2cc(-c3ccc(C)cc3)ccc2S(=O)(=O)N([C@@H](C)CO)C[C@@H]1C
    x, x, 5, x, x, x, x
COc1cccc(NC(=O)CC(C)=O)c1
    -5, 57*, 32, -10, 93, -1, i
COc1cccc(NC(=O)Cc2ccccc2)c1
    x, 1, 4, x, 108, 0, i
CC(=O)CC(=O)Nc1ccc(C(N)=O)cc1
    -9, 46, x, -6, 122, -1, i
CCCC(=O)Nc1ccc(C(N)=O)cc1
    x, -8, x, x, 99, -1, i
COc1cccc(NC(=O)CC(=O)c2ccccc2)c1
    -1, 63*, -5, -8, 100, -1, i
COc1ccc(S(=O)(=O)Nc2ccc3c(c2)CC(=O)N([C@@H](C)CO)C[C@H](C)[C@H](CN(C)S(=O)(=O)c2ccccc2)O3)cc1
    x, x, -4, x, x, x, x
Cc1ccc(N2CN=C(c3ccccc3)NC2=S)cc1
    x, -4, -33, x, 106, 0, i
COc1ccc(C2=NCN(c3ccc(C)cc3)C(=S)N2)cc1
    3, 80*, -17, -12, 108, 0, i
CNC[C@@H]1Oc2ccc(NC(=O)Cn3cnnn3)cc2C(=O)N([C@H](C)CO)C[C@@H]1C
    x, x, -16, x, x, x, x
COc1cccc(CC2(CO)CCN(Cc3ccc(NC(C)=O)cc3)CC2)c1
    x, -4, x, x, 99, 0, i

The closing 6 records of the part before lead into the next.
Values run as follows: Arr AP2 CP1, Arrestin-AP2 inh, Yeast UUG start, GST-FITC bead, Pemphigus Ab inh, Tb MetRS inh, Rce1 inh
COc1cccc(NC(=O)CC(=O)c2ccccc2)c1
    -1, 63*, -5, -8, 100, -1, i
COc1ccc(S(=O)(=O)Nc2ccc3c(c2)CC(=O)N([C@@H](C)CO)C[C@H](C)[C@H](CN(C)S(=O)(=O)c2ccccc2)O3)cc1
    x, x, -4, x, x, x, x
Cc1ccc(N2CN=C(c3ccccc3)NC2=S)cc1
    x, -4, -33, x, 106, 0, i
COc1ccc(C2=NCN(c3ccc(C)cc3)C(=S)N2)cc1
    3, 80*, -17, -12, 108, 0, i
CNC[C@@H]1Oc2ccc(NC(=O)Cn3cnnn3)cc2C(=O)N([C@H](C)CO)C[C@@H]1C
    x, x, -16, x, x, x, x
COc1cccc(CC2(CO)CCN(Cc3ccc(NC(C)=O)cc3)CC2)c1
    x, -4, x, x, 99, 0, i
COc1ccc(CC2(CO)CCN(Cc3ccc(NC(C)=O)cc3)CC2)cc1
    6, 56*, x, 0, 79, -1, i
CCCn1c(SCC(=O)Nc2ccc(Cl)cc2F)nc(O)cc1=O
    x, -6, -13, x, x, 0, x
CCCn1c(SCC(=O)Nc2ccc(F)c(Cl)c2)nc(O)cc1=O
    -7, 55*, -8, -6, 99, 0, x
Cc1no[n+]([O-])c1COc1cccc(/C=C2\N=C(c3ccccc3)OC2=O)c1
    4, 68*, x, -7, 130, -1, i
C[C@@H]1CN([C@H](C)CO)C(=O)c2cccc(NS(=O)(=O)c3cccs3)c2O[C@@H]1CN(C)S(=O)(=O)c1ccc(Cl)cc1
    x, x, 0, x, x, x, x
Cc1cccc(-n2c(C)cc(/C=C3/C(=N)N4C(c5ccccc5)=CSC4=NC3=O)c2C)c1
    -8, 55*, x, 1, 97, 0, i
O=C1c2ccccc2NC(c2cnc3ccccc3n2)N1O (stereo not given)
    -2, 94*, 21, -14, 99, -1, i
Cc1nn(C)c(C)c1C1Nc2ccccc2C(=O)N1O (stereo not given)
    x, 7, -9, x, x, 0, i
CN(C)S(=O)(=O)c1ccc(N2CCCC2)c(C(=O)NNC(=O)c2ccccc2)c1
    0, 64*, -10, 4, 96, 0, x
CN(C)S(=O)(=O)c1ccc(N2CCCC2)c(C(=O)NNC(=O)c2ccc(Br)cc2)c1
    x, 21, 11, x, 101, 4, i
CO[C@@H]1CN(C)C(=O)c2cc(NC(C)=O)ccc2OC[C@H](C)N(Cc2ccc(F)cc2)C[C@@H]1C
    x, x, 3, x, x, x, x
CN(Cc1nccs1)C(=O)C1CCC(=O)N(CCCc2ccccc2)C1 (stereo not given)
    -3, 57*, -15, -2, 101, -1, i
CN(Cc1nccs1)C(=O)C1CCC(=O)N(Cc2ccccc2F)C1 (stereo not given)
    x, -6, -14, x, 104, 0, i
COc1ccc(CCN(C)C(=O)c2cc(-c3ccccc3)nc3ccccc23)cc1OC
    x, 6, 6, x, x, 0, i
COc1ccc(CCN(C)C(=O)c2cc(-c3ccccc3)nc3ccc(C)cc23)cc1OC
    8, 67*, 8, 2, 117, -1, i
CCOCC(=O)Nc1ccc2c(c1)N(S(=O)(=O)c1cccs1)CCC2
    -2, 56*, -5, -9, 107, 0, i

Screening data (PubChem)
